From patent publication US5068325A, “4,5,7,8-tetrahydro-6H-thiazolo[5,4-d]azepines, their preparation and their use as pharmaceutical compositions” (priority 1988, dated 1991)

Protein sequences, listed by entry. Tags and fused reporters are not part of them.
UniProt P19327, whole entry: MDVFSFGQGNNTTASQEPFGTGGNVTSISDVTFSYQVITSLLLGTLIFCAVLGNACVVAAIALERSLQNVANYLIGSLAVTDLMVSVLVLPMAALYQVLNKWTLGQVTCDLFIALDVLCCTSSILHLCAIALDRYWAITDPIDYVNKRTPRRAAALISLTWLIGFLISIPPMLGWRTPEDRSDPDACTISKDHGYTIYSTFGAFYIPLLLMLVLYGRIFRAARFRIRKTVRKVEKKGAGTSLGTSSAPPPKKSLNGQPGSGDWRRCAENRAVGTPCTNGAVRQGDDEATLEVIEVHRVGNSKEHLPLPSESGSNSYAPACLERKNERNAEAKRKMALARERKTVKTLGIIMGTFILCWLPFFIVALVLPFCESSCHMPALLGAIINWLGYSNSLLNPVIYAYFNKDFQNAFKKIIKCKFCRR

Molecular target: T1, serotonin-1A(5-HT1A) receptors (Rattus norvegicus, UniProt P19327)
T1 construct: The frontal cortex was dissected out; from tissue; host or cells: rat frontal cortex homogenate (Chbb:Thom strain)
Assay: affinity for serotonin-1A (5-HT1A) receptors by displacement experiments with [3H]-8-OH-DPAT (rat frontal cortex)
Type: binding
Protocol: 3. […] (Method of S. J. Peroutka, J. Neurochem. 47, 529 (1986), modified according to H. Gozlan et al., J. Receptor Research 7. 195 (1987))
A male rat (Chbb:Thom strain weighing about 200 g) was decapitated. The brain was removed and placed in ice-cold buffer (50 mmol/1 tris-HCl plus hydrochloric acid ad pH =7.4 at ambient temperature). The frontal cortex was dissected out; its moist weight was determined. It was homogenised in 40 times its volume of buffer (Polytron, position 6, 10 seconds), then centrifuged for 20 minutes at 45,000×g in the refrigerated centrifuge. The pellet was washed in 100 times its volume of buffer and centrifuged again as described above. The resulting pellet was resuspended in 40 times its volume of buffer and pre-incubated for 10 minutes at 37° C. Sixty times the volume of buffer were added and centrifuging was carried out as above. The resulting pellet was washed with 100 times the volume of buffer and centrifuged as above. The pellet was resuspended in buffer (0.8 ml/10 mg) and briefly homogenised in the Polytron. This homogenised tissue was cooled in ice until ready for incubation.
Incubation was stopped by rapid filtering through Whatman GF/B filters; rinsing was carried out twice, each time with 5 ml of ice cold buffer (Filter Prep, Messrs. Ismatec). The radioactivity of the filters was determined by liquid scintillation measurement. […]

## NCCc1c[nH]c2ccc(O)cc12 [Serotonin, reference compound]
  Ki: 1.1 nM
